## Binding of CDR-mutated scFvs to a peptide of the spike HR2 region

The target is the same throughout: PDVDLGDISGINAS, from the HR2 region of SARS-CoV-2 spike.

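Designed CDR sequences, proposed from the first random library and measured here. Their group label is 14H_En_HC (En: ensemble of fine-tuned language models; HC: hill climbing; a sequence that several methods proposed may carry one label only). The assay is AlphaSeq: two haploid yeast populations carry antibody and antigen on their surface. Pairs that bind mate more often; barcode pairs of the diploids are counted by sequencing. Each replicate has its own calibration line, from reference interactions of the BCL2 family. The assay was run in six technical replicates.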

The variants keep the light chain, the linker and the frameworks of Ab-14 (scFv order VH, a (GGGGS)3 linker, VL).
VH: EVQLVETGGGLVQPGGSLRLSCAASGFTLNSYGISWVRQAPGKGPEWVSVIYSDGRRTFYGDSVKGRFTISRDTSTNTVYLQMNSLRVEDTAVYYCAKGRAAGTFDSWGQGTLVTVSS
VL: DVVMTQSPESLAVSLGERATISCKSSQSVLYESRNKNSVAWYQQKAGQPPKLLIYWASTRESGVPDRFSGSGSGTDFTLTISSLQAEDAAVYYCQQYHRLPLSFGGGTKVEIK

Variants are written as CDR1, CDR2 and CDR3 of the heavy chain (limits as in the source). Parent: GFTLNSYGIS, VIYSDGRRTFYGDSVK, GRAAGTFDS. Numbers give log10(Kd / nM), so 0 is 1 nM and 3 is 1 µM. Smaller is tighter. Where no diploid with the target was found in that replicate, the entry reads "ND": below detection, most likely a poor binder, though not proof of it. In the paper, a design with two or fewer of six values counts as a poor binder.

| CDR-H1 | CDR-H2 | CDR-H3 | log10 Kd, replicates | control signals |
|---|---|---|---|---|
| GFDLNEYGIS | VIYADGVRTFYADSVK | GNTAGTFDS | -0.33 / -0.46 / -0.63 / -0.78 / -0.65 / -0.56 | 1 of 18 (2.08) |
| GFDLNEYGIS | VIYADGRRTQYIDSVK | GNEAGTFDA | -0.57 / -0.38 / 0.63 / -0.65 / -0.21 / -0.66 | 0 of 18 |
| GFDLDEYGIS | VIYADGRRTFYVDSVK | GNVAGTFDS | -0.25 / -0.48 / -0.63 / -0.62 / -0.63 / -0.62 | 0 of 18 |
| GFDLDEYGIS | VIYADGRRTAYADSVK | GTNAGTFDA | -0.01 / 0.45 / -0.18 / -0.15 / -0.22 / 0.12 | 0 of 18 |
| GFDLNEYGIS | VIYADGRRTFYADSVK | GRVAGTFDQ | -0.71 / -0.87 / -0.97 / -0.82 / -0.42 / -0.67 | 0 of 18 |
| GFDLNEYGIS | VIYADGRRTFYSDSVK | GENAGTFDQ | -0.18 / -0.47 / -0.46 / -0.87 / -0.72 / -0.81 | 0 of 18 |
| GFDINEYGIS | VIYADGRRTAYADSVK | GQTAGTFDS | 0.10 / -0.47 / -0.30 / -0.54 / -0.46 / -0.27 | 0 of 18 |
| GFDLNEYGIS | VIYADGRRTAYSDSVK | GGNAGFFDA | ND / ND / ND / 3.39 / ND / ND | 2 of 18 (2.85) |
| GFDLNEYGIS | VIYADGKRTFYSDKVK | GNVAGTFDI | -0.99 / -1.07 / -1.18 / 0.23 / -0.45 / -0.52 | 0 of 18 |
| GFDLNEYGIS | VIYADGRRTFYIDSVK | GEAAGTFDV | -0.32 / -0.01 / -0.02 / -0.50 / -0.40 / -0.42 | 1 of 18 (3.07) |
| GFDLDEYGIS | VIYADGRRTFYADSVK | GTLAGTFDI | -0.75 / -0.94 / -0.74 / -0.74 / -0.79 / -0.74 | 0 of 18 |
| GFDLNEYGIS | VIYADGMRTSYADSVK | GTNAGTFDQ | 1.41 / ND / 0.32 / 0.84 / 0.73 / 2.21 | 0 of 18 |
| GFDLNEYGIS | VIYADGRRTFYSDSVK | GQVAGTFDS | ND / ND / ND / ND / 0.96 / ND | 0 of 18 |
| GFDINEYGIS | VIYADGRRTAYADSVK | GEVAGTFDV | 0.14 / 0.01 / -0.64 / -0.84 / -0.94 / -0.52 | 0 of 18 |
| GFDLNEYGIS | VIYADGRRTAYIDSVK | GHAAGTFDI | -0.30 / -0.40 / -0.61 / -0.62 / -0.36 / -0.39 | 0 of 18 |
| GFDLNEYGIS | VIYADGRRTFYVDSVK | GEAAGTFDQ | -0.48 / -0.28 / -0.66 / -0.70 / -0.74 / -0.70 | 0 of 18 |
| GFDLNEYGIS | VIYADGRRTFYKDSVK | GENAGTFDQ | -0.08 / 0.09 / -0.02 / -0.68 / -0.49 / -0.38 | 0 of 18 |
| GFDLEEYGIS | VIYADGRRTFYTDSVK | GENAGTFDV | 0.19 / -0.28 / -0.16 / -0.26 / -0.56 / -0.36 | 0 of 18 |
| GFDLDEYGIS | VIYADGRRTFYADSVK | GEAAGTFTI | 0.27 / -0.05 / 1.05 / 0.67 / 0.41 / 0.22 | 0 of 18 |
| GFDINEYGIS | VIYADGRRTFYSDSVK | GGNAGTFDV | 3.83 / 3.22 / ND / ND / ND / 2.38 | 0 of 18 |
| GFNLNEYGIS | VIYADGRRTFYADSVK | GQTAGTFDM | -0.13 / -0.48 / -0.34 / -0.77 / -0.78 / -0.32 | 1 of 18 (2.29) |
| GFDLDEYGIS | VIYADGKRTFYSDSVK | GETAGTFDV | -0.21 / 0.14 / -0.21 / 0.01 / 0.39 / 0.05 | 0 of 18 |
| GFDLDEYGIS | VIYADGRRTFYADSVK | GENAGTFLM | 1.09 / ND / ND / ND / ND / ND | 0 of 18 |
| GFDLNEYGIS | VIYADGVRTAYGDSVK | GTNAGTFDQ | 0.15 / -0.56 / -0.56 / -0.76 / -0.60 / -0.38 | 0 of 18 |
| GFDLNEYGIS | VIYADGRRTAYSDSVK | GEVAGTFVE | -0.35 / -0.53 / -0.08 / -0.73 / -0.28 / -0.40 | 1 of 18 (1.40) |
| GFDLDEYGIS | VIYADGMRTFYADSVK | GNIAGTFDA | -0.58 / -0.76 / -0.97 / -0.85 / -0.80 / -0.42 | 0 of 18 |
| GFDLDEYGIS | VIYADGRRTFYADSVK | GTNAGTFLI | ND / ND / ND / ND / ND / ND | 0 of 18 |
| GFDLNEYGIS | VIYADGRRTFYADSVK | GTNAGTFDS | ND / ND / 0.52 / -0.51 / ND / ND | 0 of 18 |
| GFGLDEYGIS | VIYADGMRTFYADSVK | GENAGTFDM | 0.17 / -0.12 / 0.25 / -0.24 / 0.07 / 0.24 | 1 of 18 (1.72) |
| GFDLNEYGIS | VIYADGRRTFYADSVK | GEAAGTFNL | -0.25 / -0.16 / 0.00 / 0.15 / -0.49 / 0.25 | 0 of 18 |
| GFDINEYGIS | VIYADGRRTFYADSVK | GNQGGTFDV | ND / ND / -0.01 / 0.40 / ND / -0.02 | 0 of 18 |
| GFDLNEYGIS | VIYADGRRTAYIDSVK | GTNAGTFDI | 0.20 / 0.29 / 0.15 / -0.01 / 0.00 / 0.10 | 0 of 18 |
| GFDLNEYGIS | VIYADGRRSFYADSVK | GQLAGTFDV | -0.83 / -0.85 / -0.89 / -1.05 / -0.63 / -0.69 | 0 of 18 |
| GFDLNEYGIS | VIYADGRRTAYSDSVK | GEVGGTFDV | -0.05 / 0.14 / -0.22 / -0.34 / -0.23 / -0.15 | 0 of 18 |
| GFDLEDYGIS | VIYADGRRTAYTDSVK | GEAAGTFDV | 0.40 / 1.01 / 0.52 / 0.72 / 0.71 / 1.28 | 0 of 18 |
| GFDLNEYGIS | VIYADGRRTFYDDSVK | GNLAGTFDQ | -0.54 / -0.56 / -0.77 / -0.82 / -0.76 / -0.50 | 0 of 18 |
| GFDIDEYGIS | VIYADGMRTFYTDSVK | GEAAGTFDL | ND / 1.09 / 1.48 / 2.37 / 2.09 / 1.53 | 1 of 18 (1.56) |
| GFDLNEYGIS | VIYADGRRTFYADSVK | GNLAGTFDM | -0.28 / -0.58 / -0.68 / -0.80 / -0.73 / -0.60 | 0 of 18 |
| GFDLDEYGIS | VIYADGRRTFYADSVK | GENAGTFDT | -0.07 / 0.07 / -0.58 / 0.01 / -0.04 / -0.15 | 0 of 18 |
| GFNLNEYGIS | VIYADGQRTFYADSVK | GEAAGTFDS | -0.75 / -0.81 / -0.57 / -0.72 / -0.64 / -0.41 | 0 of 18 |
| GFDLDEYGIS | VIYADGRRTAYADSVK | GEAAGTFDI | -0.17 / -0.41 / -0.32 / -0.21 / -0.22 / -0.07 | 0 of 18 |
| GFDLNEYGIS | VIYADGRRTFYSDSVK | GSVAGTFDK | -0.52 / -0.74 / -0.61 / -0.80 / -0.66 / -0.45 | 0 of 18 |
| GFDLNEYGIS | VIYADGRRTFYADSVK | GNHAGTFDV | -0.26 / -0.21 / -0.14 / -0.48 / -0.35 / -0.34 | 1 of 18 (1.27) |
| GFDLNEYGIS | VIYADGQRTAYADSVK | GKMAGTFDS | -0.45 / -0.70 / -0.54 / -0.63 / -0.80 / -0.57 | 2 of 18 (2.26) |
| GFDLNEYGIS | VIYADGRRTFYADSVK | GNTAGTFDK | -0.52 / -0.34 / -0.30 / -0.69 / -0.51 / -0.44 | 0 of 18 |
| GFDLNEYGIS | VIYADGKRSFYADSVK | GQLAGTFDS | -0.79 / -0.84 / -0.91 / -0.75 / -0.66 / -0.97 | 0 of 18 |
| GFDLNEYGIS | VIYADGRRTFYIDSVK | GTAAGTFDV | -0.44 / -0.31 / -0.85 / -0.70 / -0.73 / -0.70 | 0 of 18 |
| GFNLDEYGIS | VIYADGRRTFYADDVK | GNVAGTFDV | -0.41 / -0.56 / -0.58 / -0.63 / -0.62 / -0.43 | 2 of 18 (2.26) |
| GFDINEYGIS | VIYADGRRTAYADSVK | GNQGGTFDL | 0.01 / -0.02 / -0.27 / -0.09 / 0.58 / 0.00 | 0 of 18 |

Three control strains display no target. For all heavy chain designs, 1% of the pairings with them gave a signal, with a median of 2.08 and one signal in twenty below 0.84, so weak values seen in few replicates may be background. For each scFv, signals with the empty controls are counted beside the result, with their mean in brackets. Of ten entries with the parent sequence, four were seen in most replicates (averages 0.34 to 2.37), three in one and three in none, so single entries are noisy. A sequence measured in both rounds can read differently, since the two assays cover different ranges.

Source: Li et al. 2023 (doi:10.1038/s41467-023-39022-2), MIT Lincoln Laboratory and A-Alpha Bio; data file from the FLAb repository.